# Test system: immortalized human brain endothelial cell line (hCMEC/D3)
substance,measurement,value
tetramethylrhodamine isothiocyanate (TRITC)-dextran [TRITC-dextran],CNS (+/-),-

# Reference: PMC12406253, “Exploration of the Neuromodulatory Properties of Fyn and GSK-3β Kinases Exploiting 7‑Azaindole-Based Inhibitors” (Journal of Medicinal Chemistry, 2025)
